Tests used:
GRP receptor = GRP receptor (Rattus norvegicus, UniProt P52500); experiment: Amylase release from rat pancreatic acini (alone or Bn-stimulated); type: cell-based; details: read-out: IC50 Amylase Release, GRP Receptor, Rat Pancreatic Acini
[1] = biological target: GRP receptors on rat pancreatic acini (Rattus norvegicus, UniProt P52500); experiment: Binding of 125I-[Tyr4]bombesin to pancreatic acini; details: read-out: Ki 125I-[Tyr4]Bn Binding, GRP Receptor, Rat Pancreatic Acini, Ki by Cheng method

By UniProt entry, the sequences of proteins in these tests, tags left out. Where a name states a change or a piece, a line headed by the entry shows the natural chain unless it says otherwise.
UniProt P52500: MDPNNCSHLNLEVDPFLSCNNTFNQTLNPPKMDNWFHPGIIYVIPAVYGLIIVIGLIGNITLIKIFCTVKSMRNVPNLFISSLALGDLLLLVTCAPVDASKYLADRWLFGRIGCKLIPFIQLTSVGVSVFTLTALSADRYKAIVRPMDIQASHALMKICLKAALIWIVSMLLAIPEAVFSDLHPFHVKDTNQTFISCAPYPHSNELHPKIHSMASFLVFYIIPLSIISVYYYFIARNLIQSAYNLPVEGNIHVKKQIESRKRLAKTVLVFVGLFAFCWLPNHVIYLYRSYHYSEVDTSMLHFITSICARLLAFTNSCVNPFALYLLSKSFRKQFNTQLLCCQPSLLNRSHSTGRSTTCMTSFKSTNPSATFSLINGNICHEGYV

In the case of C[C@@H](O)[C@H](NC(=O)[C@@H]1CSSC[C@H](NC(=O)[C@H](N)Cc2ccc3ccccc3c2)C(=O)N[C@@H](Cc2ccccc2)C(=O)N[C@H](Cc2c[nH]c3ccccc23)C(=O)N[C@@H](CCCCN)C(=O)N[C@@H]([C@@H](C)O)C(=O)N1)C(N)=O [Analog #19], the IC50 (GRP receptor) is reported as > 10 µM and the Ki [1] is reported as > 10 µM.
